Laboratory results published in ChEMBL document CHEMBL2016448, “Discovery of new piperidine amide triazolobenzodiazepinones as intestinal-selective CCK1 receptor agonists” (Bioorg Med Chem Lett, 2012).

Protein sequences, listed by entry. Tags and fused reporters are not part of them.
UniProt P32238, whole entry: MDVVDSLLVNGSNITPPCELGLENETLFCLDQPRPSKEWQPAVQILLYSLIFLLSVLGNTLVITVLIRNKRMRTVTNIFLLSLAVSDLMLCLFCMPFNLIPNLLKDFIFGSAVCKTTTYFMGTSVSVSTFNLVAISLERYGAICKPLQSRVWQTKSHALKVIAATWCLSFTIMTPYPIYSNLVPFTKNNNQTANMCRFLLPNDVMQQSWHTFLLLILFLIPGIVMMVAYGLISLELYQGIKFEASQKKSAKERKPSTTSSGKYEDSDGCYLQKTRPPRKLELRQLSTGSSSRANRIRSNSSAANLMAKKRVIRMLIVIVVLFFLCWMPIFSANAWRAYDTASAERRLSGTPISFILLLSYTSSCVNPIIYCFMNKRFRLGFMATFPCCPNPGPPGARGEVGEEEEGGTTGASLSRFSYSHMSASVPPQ
UniProt P30551, whole entry: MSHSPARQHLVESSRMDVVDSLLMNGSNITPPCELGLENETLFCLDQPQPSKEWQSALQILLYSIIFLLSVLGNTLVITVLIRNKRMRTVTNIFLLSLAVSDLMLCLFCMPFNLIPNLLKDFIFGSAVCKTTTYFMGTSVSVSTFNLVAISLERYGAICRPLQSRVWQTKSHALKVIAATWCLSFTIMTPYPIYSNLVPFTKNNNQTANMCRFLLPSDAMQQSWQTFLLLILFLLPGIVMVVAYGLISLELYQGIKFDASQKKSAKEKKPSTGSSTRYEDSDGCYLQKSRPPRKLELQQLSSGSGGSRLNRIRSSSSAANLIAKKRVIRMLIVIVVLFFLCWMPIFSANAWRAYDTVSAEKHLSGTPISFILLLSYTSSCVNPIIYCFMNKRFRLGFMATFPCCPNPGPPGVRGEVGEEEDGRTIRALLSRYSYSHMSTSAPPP

Columns and labels:
[1] = target: T1, Cholecystokinin receptor type A (Homo sapiens, UniProt P32238); assay: Displacement of [125I]-CCK-8 from human CCK1 receptor expressed in CHO cells after 90 mins by liquid scintillation counting
[2] = target: Cholecystokinin receptor type A (Rattus norvegicus, UniProt P30551); assay: Displacement of [125I]-CCK-2 from rat CCK1 receptor expressed in CHO cells after 90 mins by liquid scintillation counting; format: cell-based
[3] = target: T1, Cholecystokinin receptor type A; assay: Agonist activity at human CCK1 receptor assessed as increase in CCK8-induced calcium release incubated in dark for 30 mins followed by light incubation for 30 mins measured by FLIPR assay; format: functional
Outline: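 FLIPR functional assay in CHO cells expressing human CCK1R. Agonism expressed as % of the CCK-8 peptide response. Initial screen at 30 µM, with >30% counted as active. Actives then run as full dose–response. EC50 is the geometric mean of at least 2 independent experiments.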

SMILES | IC50 [1] [nM] | IC50 [2] [nM] | EC50 [3] [nM]
Cc1cc(C)cc(C[C@H]2CCCCN2C(=O)CN2C(=O)[C@@H](Cc3n[nH]c4ccccc34)c3nnc(-c4ccccc4)n3-c3ccccc32)c1 | 20.3 | 14.7 | 25.4
CC(C)N(Cc1ccccc1)C(=O)CN1C(=O)[C@@H](Cc2c[nH]c3ccccc23)c2nnc(-c3ccccc3)n2-c2ccccc21 [CE-326597] | 23.6 |  | 123
